Measured values published in US6979460B1, “Vinyl ether lipids with cleavable hydrophlic headgroups” (Purdue Research Foundation, priority 1999, dated 2005).

Legend:
[1] = micellar solution, 37° C., pH 4.5, 20 mM citrate buffered saline, HPLC
[2] = 98:2 DOPE:CVEP:Bchla vesicles
Method: (§1) DOPE and the labile PEG lipid were co-dissolved in chloroform that had been prefiltered through a 2.53 cm plug of anhydrous sodium carbonate to remove traces of acid and water from the solvent. This solution was evaporated under a gentle stream of N2 and further dried under vacuum (<200 μ, 4 h). Vesicles were formed by hydrating the lipid film in the presence of 50 mM calcein using five LN2 freeze-thaw-vortex cycles. This suspension was then extruded at 50° C. through two 100 nm track-etch polycarbonate membrane filters. Extraliposomal calcein was removed using a single pass through a 40 cm Sephadex G-50 gel column equilibrated with 150 mM NaCl. The fraction eluting at the void volume was collected and stored at 8° C. until use. Light-sensitive vesicles were prepared in the same manner, except that bacteriochlorophyll a (Bchl) was codissolved in the chloroform lipid solution. Other agents or mixtures of agents, such as therapeutic compounds or diagnostic agents, are substituted for calcein in the above protocol resulting in liposomal encapsulation of the substituted agent.
(§2) Vesicle release of the liposomes made in example 4 above, was monitored at 37° C. as a function of time using the calcein fluorescence dequenching assay. Acid-trigged release was initiated by dilution of the vesicles into an acidic buffer solution as described by Gerasimov et al. Light-triggered release was promoted by aerobic illumination (800 nm, 1 W) of a continuously stirred 1 cm quartz cuvette with a SDL 820 diode laser coupled to an optical fiber. The fiber was mounted perpendicular to the cuvette surface to produce a spot of ˜3 mm diameter. Both triggering methods were conducted either in the absence or presence of ten-fold excess of egg phosphatidylcholine (EPC) vesicles as a membrane “sink”.

[3] = micellar solution, 37° C., bacteriochlorophyll a, air-saturated buffer pH 7.4, HPLC
[4] = Acid-triggered calcein release from DOPE:vinyl ether lipid vesicles (calcein fluorescence dequenching assay); type: physicochemical; conditions: for calcein contents leakage: 98:2 and 96:4 DOPE:CVEP vesicles
Method: as §1, §2

4-o-Cholesteryl-(3Z-buten-1-yl)-polyethylene [125] glycolate [CVEP]
disappearance due to acid-catalyzed hydrolysis, compared with BVEP [1]: faster | calcein release on irradiation ([2]; pH 7.4, 800 nm illumination, absence of sink EPC): slow release | observed calcein release rate on irradiation ([2]; pH 7.4, 800 nm illumination, sink lipid present (vs absent)): increased significantly | background (dark) calcein leakage ([2]; pH 7.4, dark, even in the presence of sink EPC): not significant | disappearance due to photolysis, compared with BVEP [3]: faster | t50% release ([4]; 98:2 DOPE:lipid vesicles (identical loadings), pH 4.5, 37° C.): 220 min | calcein contents leakage ([4]; pH 4.5, 37° C., in the absence of sink EPC): very little contents leakage | calcein contents leakage ([4]; pH 4.5, 37° C., in the presence of sink EPC): calcein leakage occurs | calcein contents leakage ([4]; pH 7.4, 37° C., sink EPC present or not): very little contents leakage | dependence of rate of calcein leakage on vesicle CVEP content ([4]; DOPE:CVEP vesicles, pH 4.5, sink conditions): lower loadings producing more rapid release rates
